Data set [1] can be described thus: Human blood plasma stability assay. Format: in vitro ADME. As to conditions: Blood plasma half life (T1/2). On the procedure:
In this assay, the half-life (T1/2) of a compound in blood plasma is measured in vitro, whereby its susceptibility to degradation by proteases, peptidases and general plasma contents is quantified.
Compounds of interest were dissolved in human blood plasma (270 μl; 3H Biomedical, Sweden, cat no 1300-1-P50) to a concentration of 0.25 mM (30 μL of 2.5 mM) and incubated at 37° C. Aliquots (30 μl) were removed at various time intervals (0, 5, 10, 20, 40, 80, 160, 320, 960, 1280, 2550, 4560 and 7240 min) and quenched with 60 μL trichloroacetic acid (aq., 5%). The aliquots were vortexed, and incubated for at least 15 min, at 4° C. prior to centrifugation at 18,000 g for 2 min and the supernatant was analyzed by RP-HPLC to quantify the remaining compound (absorbance at 218 nm).

Data set [2] deals with T1, PDZ2 of PSD-95 (Homo sapiens, UniProt P78352).
T1 construct: PDZ2 (residues 155-249); made in house; host or cells: E. coli BL21-DE3 pLysS
Description: FP heterologous competition binding assay. As to conditions: for Ki: FP competition, mean ± SEM, NA = no activity/affinity. The text has this: (§1) Determined IC50 values may be converted to Ki values.^5 Suitable fluorophores include either 5-FAM or Cy5, which may be coupled to a tripeptide (KSG or CSG) linker attached to the N-terminus of the undecapeptide, to give 5-FAM-NR2B, Cy5-NR2B, 5-FAM-CRIPT and Cy5-CRIPT. The 5-FAM fluorophore may be attached to the undecapeptides by coupling with HATU. The Cy5 fluorophore may be conjugated to the undecapeptides by coupling Cy5-maleimide to the cysteine side chain of the tripeptide sequence CSG attached to the N-terminus of the peptide, as detailed in the Methodology section.
(§2) To measure the affinities between non-fluorescent peptides and PDZ domains, heterologous competition bindings assay were performed. This was done by adding increasing concentrations of peptide to a fixed concentration of Cy5-NR2B, 5-FAM-NR2B, Cy5-CRIPT or 5-FAM-CRIPT (50 nM) and PDZ (20 μM for PDZ1, 3 μM for PDZ2 and 1-2 and 5 μM for PDZ3) in the same TBS buffer and conditions as described above. FP values were then fitted to the general equation: Y=Bottom+(Top−Bottom)/[1[…](10̂^X-logIC50)], where X is the logarithmic value of peptide concentration. Hereby the IC50 value was obtained, which is used to calculate the theoretical competitive inhibition constant, Ki.^5
(§3) A convenient and reliable way to examine interactions between peptide analogues and PDZ domains is by using a fluorescence polarization (FP) assay. The three PDZ domains, PDZ1-3, of PSD-95 were expressed individually as set out above, while PDZ1-2 was also expressed as a tandem construct. […] IC50 values were then converted to Ki values.^5

Data set [3] addresses T2, PDZ1-2 tandem of PSD-95 (Homo sapiens, UniProt P78352).
T2 construct: PDZ1-2 (residues 61-249) tandem; made in house; host or cells: E. coli BL21-DE3 pLysS
Description: FP heterologous competition binding assay. As to conditions: mean ± SEM.
Excerpt: as §1, §2, §3

Data set [4] deals with T1, PDZ2 of PSD-95. Kind of data set: Isothermal titration calorimetry (ITC). In kind it is binding. As to conditions: 25° C., PBS pH 7.4; mean ± SEM. The text has this: (§4) This technique (Pierce, M. et al., 1999., Methods, p. 213-221) provides an exact determination of the affinity of a ligand for its target protein, as well as measuring the thermodynamic properties of the interaction, including enthalpy (ΔH), entropy (ΔS) and free energy (ΔG) together with the stoichiometric relationship of ligand binding. In this method, un-labeled ligand is titrated into a solution of un-labeled PDZ protein located in the calorimeter. Heat generated upon protein recognition is measured (ΔH) during the titration of the ligand and the PDZ protein until saturation is achieved, and the heat-exchange upon further ligand addition is negligible. Based on the amount of ligand needed to achieve saturation an affinity constant (Kd) is calculated and in addition ΔH, ΔS, ΔG and stoichiometry are determined.
(§5) Calorimetry experiments were performed on a microcalorimeter (Microcal, MA, USA). The ligands were titrated directly into the PDZ solution. […] The concentration of peptide and PDZ in solution was quantified by amino acid analysis. […] The analysed solution was stirred at 1000 rpm, with a reference power of 6 μcal/s. Heats of dilution were initially determined by titrating the ligand into buffer and subtracting these baseline values from the observed “heat values”. […]

In data set [5] the target is T3, PDZ1 of PSD-95 (Homo sapiens, UniProt P78352).
T3 construct: PSD-95 PDZ1 (residues 61-151); made in house; host or cells: E. coli BL21-DE3 pLysS
Description: FP heterologous competition binding assay.
Excerpt: as §1, §2, §3

Data set [6] has as its target T4, PDZ1-2 of PSD-95 (Homo sapiens, UniProt P78352).
T4 construct: PDZ1-2 (residues 61-249) tandem; made in house; host or cells: E. coli BL21-DE3 pLysS
Description: Isothermal titration calorimetry (ITC). In kind it is binding. As to conditions: 25° C., PBS pH 7.4; mean ± SEM; read-out: ITC Kd PDZ12.
Excerpt: as §4, §5
A general note: In ITC the heat of successive injections is recorded.

Molecules are shown by their SMILES.

As for `CC[C@H](C)[C@H](N)C(=O)N[C@@H](C)C(=O)N[C@H](C(=O)N[C@@H](C)C(=O)N[C@H](C(=O)O)C(C)C)[C@@H](C)O` [IATAV (86), IATAV], the half-life at […] in data set [1] lay in the range of 17 to 55 min. Besides, the results for the inhibition constant (Ki) in data set [2] and in data set [3] were 16000 ± 330 nM and 18000 ± 470 nM, respectively.
`CC[C@H](C)[C@H](N)C(=O)N[C@@H](CCC(=O)O)C(=O)N[C@@H](CO)C(=O)N[C@@H](CC(=O)O)C(=O)N[C@H](C(=O)O)C(C)C` [IESDV (7), IESDV] registered a dissociation constant Kd in data set [4] of 2600 ± 190 nM. For the same compound, the “affinity to PDZ1, in words” value in data set [5] was “without losing affinity”. In addition, in data set [2] (FP assay), the “affinity to PDZ2, in words” value is recorded as “without losing affinity”. In data set [2], the Ki stood at 3100 ± 150 nM.
`CC[C@H](C)[C@H](N)C(=O)N[C@@H](CCC(=O)O)C(=O)N[C@H](C(=O)N[C@@H](C)C(=O)N[C@H](C(=O)O)C(C)C)[C@@H](C)O` [IETAV (82), IETAV]: the Kd in data set [6] amounted to 1900 ± 110 nM. For the same compound, the Ki came to 1700 ± 200 nM in data set [2] and 2500 ± 130 nM in data set [3].

By half-life is commonly meant the time needed for the level to fall by half in the phase considered. Low readings indicate rapid decline, high ones slow decline. In general, Ki refers to the dissociation constant of the complex between target and ligand, obtained from inhibition or displacement. For orientation: Kd means the free concentration of one partner at which half of the binding sites on the other are occupied at equilibrium, for simple one-to-one binding.

Source of the values: patent US20160176924A1, “MODIFIED PEPTIDES AS POTENT INHIBITORS OF THE PSD-95/NMDA RECEPTOR INTERACTION” (priority 2008, published 2016).
